From paper PMC12440207, “Positive allosteric modulation of emodepside sensitive Brugia malayi SLO-1F and Onchocerca volvulus SLO-1A potassium channels by GoSlo-SR-5-69” (PLOS Pathogens, 2025)
Like-named read-outs stand apart in the source and are kept apart here.

Amino acid sequences for entries named in this document (tags omitted).
UniProt A0A0J9Y9H3, entry or part of it: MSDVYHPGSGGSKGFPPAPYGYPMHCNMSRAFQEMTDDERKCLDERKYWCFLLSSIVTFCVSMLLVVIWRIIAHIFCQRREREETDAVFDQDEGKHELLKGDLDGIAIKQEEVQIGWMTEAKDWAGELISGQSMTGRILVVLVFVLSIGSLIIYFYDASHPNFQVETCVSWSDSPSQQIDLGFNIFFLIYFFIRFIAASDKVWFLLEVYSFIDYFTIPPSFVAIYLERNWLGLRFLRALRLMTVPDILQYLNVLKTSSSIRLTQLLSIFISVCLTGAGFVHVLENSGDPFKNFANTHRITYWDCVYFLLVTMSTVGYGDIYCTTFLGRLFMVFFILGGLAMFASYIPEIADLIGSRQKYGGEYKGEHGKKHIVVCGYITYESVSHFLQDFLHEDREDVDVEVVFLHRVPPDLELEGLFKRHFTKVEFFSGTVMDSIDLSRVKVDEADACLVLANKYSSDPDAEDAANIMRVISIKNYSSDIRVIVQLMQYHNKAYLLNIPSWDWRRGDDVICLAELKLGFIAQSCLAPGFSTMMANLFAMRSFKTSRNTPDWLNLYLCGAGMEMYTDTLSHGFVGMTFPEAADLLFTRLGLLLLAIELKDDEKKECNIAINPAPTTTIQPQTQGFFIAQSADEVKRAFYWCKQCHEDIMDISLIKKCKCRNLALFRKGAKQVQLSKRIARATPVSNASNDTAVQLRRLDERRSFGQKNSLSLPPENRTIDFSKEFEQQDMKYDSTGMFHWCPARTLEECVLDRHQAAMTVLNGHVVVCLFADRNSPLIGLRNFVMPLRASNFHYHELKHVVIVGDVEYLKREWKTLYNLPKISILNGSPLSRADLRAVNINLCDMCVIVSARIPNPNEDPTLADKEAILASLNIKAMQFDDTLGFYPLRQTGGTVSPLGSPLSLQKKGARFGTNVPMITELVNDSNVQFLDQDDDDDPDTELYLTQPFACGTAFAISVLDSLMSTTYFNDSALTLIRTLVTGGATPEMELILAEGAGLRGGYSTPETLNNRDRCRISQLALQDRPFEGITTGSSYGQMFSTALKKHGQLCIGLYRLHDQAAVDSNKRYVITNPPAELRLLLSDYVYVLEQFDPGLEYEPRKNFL
UniProt A0A2K6W0E9, entry or part of it: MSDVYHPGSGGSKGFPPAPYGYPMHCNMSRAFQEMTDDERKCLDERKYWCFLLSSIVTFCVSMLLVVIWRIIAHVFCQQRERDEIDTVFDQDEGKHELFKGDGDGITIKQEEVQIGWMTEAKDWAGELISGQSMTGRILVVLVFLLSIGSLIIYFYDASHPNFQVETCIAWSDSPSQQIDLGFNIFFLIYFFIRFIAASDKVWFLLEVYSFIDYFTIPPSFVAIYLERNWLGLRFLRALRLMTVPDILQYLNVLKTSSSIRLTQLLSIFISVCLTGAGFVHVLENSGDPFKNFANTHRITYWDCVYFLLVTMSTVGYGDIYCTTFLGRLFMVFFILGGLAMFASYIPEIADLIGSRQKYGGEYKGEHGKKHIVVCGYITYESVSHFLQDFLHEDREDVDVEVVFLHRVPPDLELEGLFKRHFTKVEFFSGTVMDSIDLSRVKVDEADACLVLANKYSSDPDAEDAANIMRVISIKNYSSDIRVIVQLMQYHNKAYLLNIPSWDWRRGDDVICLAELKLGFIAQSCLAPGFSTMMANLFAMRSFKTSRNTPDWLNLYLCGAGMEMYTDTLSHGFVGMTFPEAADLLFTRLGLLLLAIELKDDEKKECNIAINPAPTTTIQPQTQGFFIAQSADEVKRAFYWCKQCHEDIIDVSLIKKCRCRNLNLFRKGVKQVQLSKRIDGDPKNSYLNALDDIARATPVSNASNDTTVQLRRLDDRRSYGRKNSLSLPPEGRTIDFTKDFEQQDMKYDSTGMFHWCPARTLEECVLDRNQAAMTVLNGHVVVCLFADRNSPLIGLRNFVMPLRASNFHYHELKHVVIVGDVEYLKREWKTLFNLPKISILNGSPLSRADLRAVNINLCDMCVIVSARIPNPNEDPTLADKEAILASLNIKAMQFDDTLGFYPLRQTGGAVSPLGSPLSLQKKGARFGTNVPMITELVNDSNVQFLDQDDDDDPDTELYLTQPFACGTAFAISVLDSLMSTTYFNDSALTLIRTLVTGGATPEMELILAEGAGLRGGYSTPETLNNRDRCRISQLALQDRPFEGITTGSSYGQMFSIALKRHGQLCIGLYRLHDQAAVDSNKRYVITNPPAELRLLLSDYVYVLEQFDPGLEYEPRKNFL

Assays:
Bma-SLO-1F = Bma-SLO-1F (Brugia malayi, UniProt A0A0J9Y9H3); assay: Two-electrode voltage clamp of Xenopus oocytes expressing Bma-SLO-1F; format: cell-based; details: read-out: EC50 of emodepside; emodepside alone, cumulative 0.1-10 µM, 5 min per concentration, holding potential +20 mV, n = 10
Method: (§1) Defolliculated Xenopus laevis oocytes were purchased from Ecocyte Bioscience (Austin, TX, USA) and Xenopus 1 Corp (Dexter, MI, USA). Heterologous expression of the Bma-SLO-1F receptor was achieved by injecting 15 ng of cRNA in a total volume of 50 nL in nuclease-free water. Each oocyte was microinjected into the cytoplasm of the animal pole region using a Drummond Nanoject II microinjector (Drummond Scientific, Broomall, PA, USA). After injection, oocytes were incubated at 17°C in a sterile 96-well culture plate containing 300 μl of incubation solution (100 mM NaCl, 2 mM KCl, 1.8 mM CaCl2.2H2O, 1 mM MgCl2.6H2O, 5 mM HEPES, 2.5 mM Na pyruvate, 100 U/mL penicillin and 100 μg/mL streptomycin, pH 7.5) in each well. Incubation solution was changed daily during the period of incubation. The same procedure was also conducted for the Ovo-SLO-1A receptor. Experiments were performed on oocytes within 5 – 6 days post injection. […]
(§2) Emodepside is known to be lipophilic, thus making it difficult to wash off completely from the Xenopus laevis oocyte preparation after application. […] For our recordings, the times for drug applications were selected to allow the currents recorded to reach a stable plateau. […]

[1] = Solubility limit in oocyte recording solution; format: physicochemical; details: DMSO not exceeding 0.1%
Method: Emodepside is known to be lipophilic, thus making it difficult to wash off completely from the Xenopus laevis oocyte preparation after application. […] To estimate EC50 values, we utilized a cumulative concentration-response protocol (no wash steps between drug application) and a maximum concentration of 10 µM emodepside. For our recordings, the times for drug applications were selected to allow the currents recorded to reach a stable plateau. At the beginning of experiments the Xenopus oocytes were perfused with drug free recording solution for 1 min, to obtain stable initial resting currents. For our drug applications we used successive applications of increasing concentrations of emodepside (0.1 – 10 µM) for 5 mins per concentration. Washing of the Xenopus oocytes then followed for 3 mins.

Ovo-SLO-1A = Ovo-SLO-1A (Onchocerca volvulus, UniProt A0A2K6W0E9); assay: Two-electrode voltage clamp of Xenopus oocytes expressing Ovo-SLO-1A; format: cell-based; details: read-out: EC50 of emodepside
Method: as §1, §2

emodepside
EC50 (Bma-SLO-1F): 1400 ± 200 nM
concentration above which precipitation and a limit of solubility were seen [1]: exceeding 10 µM
EC50 (Ovo-SLO-1A; control, absence of GoSlo-SR-5-69, modulation experiment, n = 6): 500 ± 90 nM
EC50 (Ovo-SLO-1A; emodepside alone, cumulative 0.1-10 µM, 5 min per concentration, holding potential +20 mV, n = 10): 400 ± 50 nM
